Test results published in PMC10257519 (European journal of medicinal chemistry, 2022).

Tested on: acetyl–H3 and pan acetyl–lysine
Experiment: Hyperacetylation assay by Western blot
Assay type: cell-based, human
Settings: 5 and 10 μM

## O=C(CCCCCCC(=O)Nc1ccccc1)NO [SAHA, vorinostat, reference compound]
  levels of acetylated H3 (Western blot): increased levels
  levels of pan-acetyl-lysine (Western blot): increased levels
